Sfp inh: blocks B. subtilis Sfp PPTase activity | Potency, µM, most hits filed as inhibitors | hit rate 3.5% among 310,000 | AID 1490 | Biochemical Sfp PPTase activity, qHTS;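 note: the enzyme is Sfp with the accession as filed and its product quenches rhodamine fluorescence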
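Fluorescence-quenching assay with 15 nM Sfp, 5 uM rhodamine-CoA and 12.5 uM BHQ-2-labelled ybbR peptide in pH 7.6 Hepes/MgCl2 buffer. Enzyme was pre-incubated with compound for 15 min at room temperature. Rate was taken from the 30-min fluorescence change (525/598 nm).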
ALDH1A1 inh: ALDH1A1 (human) enzyme inhibition; P00352; Purified ALDH1A1, NADH fluorescence, propionaldehyde substrate; Potency, µM (highest dose often 75.3 µM), most hits filed as inhibitors; hit rate 7.3% among 220,000; active = well fitted inhibition curve with a large enough effect, not every such curve was filed as active; inconclusive = small, poorly fitted or top-dose-only effect, or another doubt; inactive = no such curve, though single readings can be large or run the other way
miR-21 FLuc: raises the signal of a miR-21 reporter | HeLa miR-21 FLuc reporter, luciferase, 48 h | Potency, µM (doses to about 38.3 µM) | 340,000 tested, under 10 active | AID 2288; active = well fitted rising curve with a large enough effect; inconclusive = small, poorly fitted or top-dose-only effect; inactive = no such curve, though single readings can be large or run the other way;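 note: miR-21 action dims this reporter so a rising signal means less miR-21 action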
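Using DMEM plus 10% FBS, HeLa miR-21-FLuc cells are incubated with test compounds (final up to about 40uM) for 48 hours; firefly luciferase signal is then imaged following reagent-mediated lysis.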
G9a block: blocks human histone lysine methyltransferase G9a; Q96KQ7; G9a H3K9 monomethylation, AlphaScreen, 2 h; Potency, µM (top dose mostly 102 µM), actives largely listed as inhibitors; hit rate 8.8% among 350,000; AID 504332; note: nearly all actives have a fitted effect of over 75% in size
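Enzyme 20 nM + cpd, 15 min RT; add b-H3K9 pep 500 nM / SAM 20 uM; 2 h RT; anti-H3K9me1 Ab 0.5 ug/mL + SA donor / anti-rabbit acceptor beads 20 ug/mL each, 10 min; AlphaScreen read.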
Lamin A splicing: changes lamin A minigene splicing in HeLa cells | HeLa LMNA splicing GFP/RFP minigene ratio, 48 h | Potency, µM (titrated, usually from 46.1 µM), actives largely listed as inhibitors | hit rate 0.01% among 200,000 | AID 1487; active = well fitted inhibition curve with a large enough effect in the signal ratio, with a control signal flat, not every such curve was filed as active; inconclusive = small, poorly fitted or top-dose-only effect, or effect the other way, or a change in a side signal; the % refers to the signal ratio
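S3 HeLa cells stably expressing lamin A-EGFP splicing minigene plus DsRed2, 600 cells/well, 48 h compound exposure at 37C. Laser-scanning cytometry; analysed as GFP (500-530 nm)/RFP (575-640 nm) total intensity ratio; 0.5% DMSO vehicle.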
KDM4E inh: JMJD2E (human) inhibition. B2RXH2. JMJD2E catalytic domain, FDH-coupled NADH fluorescence (FDH is formaldehyde dehydrogenase). Potency, µM (highest dose often 57.1 µM), hits mostly inhibitors. hit rate 1.6% among 230,000. AID 2147; active = well fitted inhibition curve with a large enough effect, not every such curve was filed as active; inconclusive = small, poorly fitted or top-dose-only effect, or another doubt; inactive = no such curve, though single readings can be large or run the other way; note: nearly all actives have a fitted effect of over 50% in size
Hits are given with their value; n = inactive; u = inconclusive; x = not tested or not shown; ! = a repeat was not active; [ ] = dose if it differs, or a comment. A selection: hits, their analogues and other compounds. The true share with any hit is near 13%. Unless noted, calls come from the whole dose curve; as a rule, active = well fitted curve in the direction sought with a large enough effect; inconclusive = small, poorly fitted or top-dose-only effect, or another doubt; inactive = no such curve, though single readings can be large; an effect the other way counts as inactive or inconclusive.

SMILES	Sfp inh	ALDH1A1 inh	miR-21 FLuc	G9a block	Lamin A splicing	KDM4E inh
CCc1nnc2c(NCCc3ccccc3)nc3ccccc3n12	n	x	n	n[2.33 µM]	x	x
Cc1cc(=O)[nH]c(N/N=C/c2c(C)nn(-c3ccccc3)c2C)n1	n	u	n	25.1µM	x	n
C/C=C/C=N/Nc1nc(C)cc(=O)[nH]1	u	n	n	3.55µM	x	n
Cc1ccsc1/C=N/Nc1ncnc2nc[nH]c12	50.1µM	n	n	n	x	n
COc1ccc(OC)c(/C=N/Nc2nc(C)cc(=O)[nH]2)c1	u	x	n	44.7µM	x	x
Cc1ccccc1/C=N/Nc1ncnc2nc[nH]c12	n	x	n	n	x	n
Cc1cc(=O)[nH]c(N/N=C/c2c(F)c(F)c(F)c(F)c2F)n1	u	x	n	n	x	x
O=C(CNC(=O)c1cccs1)N=Nc1c(O)[nH]c2ccc([N+](=O)[O-])cc12	u	x	n	n	x	x
COc1cccc(N2CCN(C(=O)Cn3c(-c4cccs4)cc4ccccc43)CC2)c1	x	x	n	n	n	x
Cc1cc(=O)[nH]c(N/N=C/c2ccccc2Cl)n1	n	x	n	39.8µM	x	x
Cc1nn(-c2ccccc2)c(C)c1/C=N\NS(=O)(=O)c1ccc(Cl)cc1	n	u	n	3.16µM	n	n
Cc1nn(-c2ccccc2)c(C)c1NS(=O)(=O)c1ccccc1	n	n	n	n	n	n
Cc1cc(=O)[nH]c(N/N=C/c2sccc2C)n1	12.6µM	n	n	u	n	n
O=C(c1ccc(Cl)c(S(=O)(=O)N2CCOCC2)c1)N1CCCCCC1	n	x	n	n	x	x
Clc1cccc(-n2ncc3c(N4CCCCC4)ncnc32)c1	x	x	n	n	u	x
COc1cc2c(cc1OC)C(c1cc3cc(C)ccc3[nH]c1=O)N(C(=O)c1ccco1)CC2 (stereo not drawn)	n	x	n	u	x	x
COc1cc2c(cc1OC)C(c1cc3cc(OC)c(OC)cc3[nH]c1=O)N(C(=O)C1CC1)CC2 (stereo not drawn)	50.1µM	u	n	n	n	u
CCN1CCN(CCOc2cccc(Cl)c2Cl)CC1	50.1µM	8.91µM	n	x	x	n
Clc1ccccc1OCCN1CCCCC1	n	n	n	u	n	n
CC1CC(C)CN(CCOc2ccc(Cl)cc2Cl)C1 (stereo not drawn)	n	n	n	u	n	u
CC1CC(C)CN(CCOc2cccc(Cl)c2Cl)C1 (stereo not drawn)	n	n	n	12.6µM	n	u
CN(C)c1ncc2nc(-c3cccs3)c(=O)n(C)c2n1	n	n	x	n[0.501 µM]	n	x
O=C(NCC1CCCCC1)C1(CC2CC(c3ccc(Cl)cc3)=NO2)CCNCC1 (stereo not drawn)	n	x	n	44.7µM	x	x
O=C(NCC1CCCCC1)C1(CC2CC(c3cccc(Br)c3)=NO2)CCNCC1 (stereo not drawn)	n	x	u	u	x	x
COc1cc(C(=O)Nc2ccc3c(c2)CCCN3C(=O)c2ccco2)c([N+](=O)[O-])cc1OC	x	x	x	n[2.33 µM]	x	x
SMILES	Sfp inh	ALDH1A1 inh	miR-21 FLuc	G9a block	Lamin A splicing	KDM4E inh
O=c1[nH]c2ccc(NCc3ccccc3F)cc2[nH]1	x	x	n	17.8µM	x	x
C=CCOc1c(CNc2ccc3[nH]c(=O)[nH]c3c2)cccc1OC	n	n	n	x	x	20µM
Oc1ccc(NCc2ccccc2OCc2ccc(Cl)cc2)cc1	x	x	n	7.94µM	x	x
O=c1[nH]c2ccc(NCc3ccccc3OCc3ccc(Cl)cc3)cc2[nH]1	n	x	n	25.1µM	x	x
O=c1[nH]c2ccc(NCc3ccc(-c4ccccc4F)o3)cc2[nH]1	x	x	n	n	n	x
Cc1cc(Br)ccc1NC(=O)c1cn(C2CCCC2)c(=O)c2c1c1ccccc1n2C	x	x	n	n	x	x
O=C(Nc1ccccc1)N1CCCC2(CCN(C(=O)c3cccc(F)c3)CC2)C1	n	n	x	n[12.7 µM]	x	x
Cc1cc(C(=O)NCc2cccnc2)no1	n	n	n	n	n	n
O=C(NCc1cccnc1)c1ccc(-c2cccc(Cl)c2Cl)o1	15.8µM	n	n	x	x	n
O=C(NCc1cccnc1)c1ccc(-c2ccccc2[N+](=O)[O-])o1	n	n	n	n	n	n
Cc1ccccc1-c1ccc(C(=O)NCc2ccccc2)o1	n	u	n	44.7µM	n	u
Cc1cc2c(cc(C(=O)NCc3cccnc3)n2Cc2ccc(Cl)cc2)o1	44.7µM	6.31µM	n	u	n	u
Cc1ccc(-c2ccc(C(=O)NCc3ccc(Cl)cc3)o2)c2ccccc12	u	u	n	14.1µM	n	u
O=C(NCc1ccccc1)c1ccc(-c2ccc(F)cc2)o1	u	u	n	n[2.33 µM]	u	u
COc1ccc2c(c1)c1c(c(=O)n(-c3ccc(OC)c(OC)c3)c(=O)n1Cc1ccc(F)cc1)n2C	x	x	n	n	x	x
COc1ccccc1C(CNC(=O)c1cccc(S(=O)(=O)NCc2ccccc2)c1)N(C)C (stereo not drawn)	x	x	x	n[0.501 µM]	x	x
O=C(NCc1ccccc1)c1ccc(-c2ccccc2C(F)(F)F)o1	n	25.1µM!	n	39.8µM	n	n
N#C/C(=C\c1ccc(C(=O)O)cc1)c1nc2sc3c(c2c(=O)[nH]1)CCCC3	n	u	n	39.8µM	u	n
Cc1ncc([N+](=O)[O-])n1CCN1C(=O)c2ccccc2C1=O	n	x	n	n	x	x
CCOC(=O)C1=C(O)C(=O)N(Cc2ccc(C(C)(C)C)cc2)CC1	n	14.1µM	n	n	x	n
CC(/C=C/c1cccc(Oc2ccc(F)cc2)c1)N(O)C(N)=O (stereo not drawn)	n	n	x	n	u	n
CC(=O)c1ccc(NC(=O)CSc2n[nH]c(-c3cccnc3)n2)cc1	u	x	n	n	x	x
Cc1ccc(C(C)C)c(OCc2ccc(C(=O)N/N=C/c3cccc(O)c3O)cc2)c1	n	n	u	u	u	4.47µM
O=C1CC(N2CCC(c3nc4ccccc4[nH]3)CC2)C(=O)N1c1cccc(F)c1 (stereo not drawn)	n	11.2µM	n	u	n	n
O=C1CC(N2CCC(c3nc4ccccc4o3)CC2)C(=O)N1c1ccc(Cl)c(C(F)(F)F)c1 (stereo not drawn)	n	8.91µM	n	u	u	n
SMILES	Sfp inh	ALDH1A1 inh	miR-21 FLuc	G9a block	Lamin A splicing	KDM4E inh
O=C(O)c1ccc(N2C(=O)CC(N3CCC(c4nc5ccccc5[nH]4)CC3)C2=O)cc1 (stereo not drawn)	n	31.6µM	n	u	n	n
CCCOc1ccc(N2C(=O)CC(N3CCC(c4nc5ccccc5o4)CC3)C2=O)cc1 (stereo not drawn)	n	n	n	n	n	n
CCOc1ccc(/C=N/n2c(COc3ccccc3)n[nH]c2=S)cc1OC	56.2µM	x	n	8.91µM	x	x
COc1cc(/C=N/N2CCN(Cc3ccc(Cl)cc3)CC2)cc(Br)c1O	n	x	n	n[0.501 µM]	x	x
C=CCOc1c(Br)cc(/C=N/n2c(CC)n[nH]c2=S)cc1Br	79.4µM	n	n	u	u	n
COc1cc(/C=N/n2c(COc3ccccc3)n[nH]c2=S)cc(Br)c1O	u	x	n	1.26µM	x	x
CCc1n[nH]c(=S)n1/N=C/c1cc(Br)c(O)c(OC)c1	79.4µM	x	n	7.94µM	x	n

From PubChem
